{"sequences": {"note": "Sequences of proteins named here, by UniProt entry; tags and fusion partners are left off. Residues count along the entry.", "UniProt Q00960, 27-1482 limits assumed": "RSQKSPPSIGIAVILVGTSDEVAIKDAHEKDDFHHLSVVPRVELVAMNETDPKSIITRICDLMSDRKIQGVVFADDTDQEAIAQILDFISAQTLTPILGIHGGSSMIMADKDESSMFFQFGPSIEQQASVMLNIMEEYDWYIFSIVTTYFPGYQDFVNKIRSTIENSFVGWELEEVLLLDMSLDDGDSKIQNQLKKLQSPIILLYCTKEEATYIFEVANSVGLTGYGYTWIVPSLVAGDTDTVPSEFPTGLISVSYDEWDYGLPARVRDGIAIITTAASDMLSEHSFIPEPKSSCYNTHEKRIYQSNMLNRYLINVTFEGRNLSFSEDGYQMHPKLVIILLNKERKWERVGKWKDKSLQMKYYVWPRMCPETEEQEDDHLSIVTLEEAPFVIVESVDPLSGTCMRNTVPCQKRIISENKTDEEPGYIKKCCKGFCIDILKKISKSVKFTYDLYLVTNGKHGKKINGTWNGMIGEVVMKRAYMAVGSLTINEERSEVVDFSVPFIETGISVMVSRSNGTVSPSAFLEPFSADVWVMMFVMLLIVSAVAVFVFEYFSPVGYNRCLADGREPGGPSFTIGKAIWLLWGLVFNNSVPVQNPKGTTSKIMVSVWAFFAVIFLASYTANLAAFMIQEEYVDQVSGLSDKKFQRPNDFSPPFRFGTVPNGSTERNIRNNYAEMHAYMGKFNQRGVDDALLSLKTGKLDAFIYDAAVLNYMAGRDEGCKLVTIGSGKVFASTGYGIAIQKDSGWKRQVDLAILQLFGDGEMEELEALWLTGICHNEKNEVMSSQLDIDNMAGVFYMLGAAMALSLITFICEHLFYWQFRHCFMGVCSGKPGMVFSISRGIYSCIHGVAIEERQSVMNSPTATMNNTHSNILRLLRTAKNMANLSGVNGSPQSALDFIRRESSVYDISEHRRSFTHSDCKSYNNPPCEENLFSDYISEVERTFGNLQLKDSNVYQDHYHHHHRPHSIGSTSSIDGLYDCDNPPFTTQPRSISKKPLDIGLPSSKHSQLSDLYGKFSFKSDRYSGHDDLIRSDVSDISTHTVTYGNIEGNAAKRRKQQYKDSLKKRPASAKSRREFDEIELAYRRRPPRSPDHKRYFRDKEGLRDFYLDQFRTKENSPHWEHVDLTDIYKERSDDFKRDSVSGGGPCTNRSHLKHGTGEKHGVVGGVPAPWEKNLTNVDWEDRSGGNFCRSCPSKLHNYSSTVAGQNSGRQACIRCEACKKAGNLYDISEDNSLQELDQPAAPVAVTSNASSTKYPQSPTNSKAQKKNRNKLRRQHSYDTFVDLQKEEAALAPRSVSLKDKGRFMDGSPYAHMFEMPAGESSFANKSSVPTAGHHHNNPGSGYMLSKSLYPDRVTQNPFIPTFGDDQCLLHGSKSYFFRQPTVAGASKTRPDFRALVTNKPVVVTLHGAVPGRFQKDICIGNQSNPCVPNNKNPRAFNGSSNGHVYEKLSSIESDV"}, "source": "patent US6881740B1", "about": "“Pharmaceutical agents” (Monash University, priority 1998, dated 2005)", "key": {"[1]": {"biological_target": "NMDA/polyamine sites (polyamine-sensitive [3H]-ifenprodil binding, rat cerebral cortex membranes) (Rattus norvegicus, UniProt P35439+Q00960)", "experiment": "NMDA/polyamine site [3H]-ifenprodil binding assay", "settings": "[3H]-ifenprodil 4 nM, rat cerebral cortex homogenate, tested form: free base or hydrochloride (not specifie); for IC50: 2 h at 4° C., 3PPP 100 μM to block sigma sites; for Ki: competition curves analysed with Radlig", "text": "Ifenprodil and eliprodil have been reported as antiischaemic agents (Gotti et al., 1988) and both compounds have been reported to associate with the polyamine sensitive site of the NMDA receptor complex (Carter et al., 1989 and 1990; Reynolds et al., 1989; and Robinson et al., 1990). […] These agents bind independently of the NMDA ion channel (Carter et al., 1991; Reynolds et al., 1989), appear not to cause behavioural effects (Carter et al., 1991), and may target specific heteromeric NMDA receptors (Williams, 1993; Nicola et al., 1994) uniquely distributed in forebrain regions (Standaert et al., 1994) affected in ischaemia and head trauma. […] Accordingly, compounds of the present invention are capable of binding to the NMDA receptor complex and providing a neuroprotective effect, or otherwise providing benefit in other conditions related to NMDA receptors.\nBriefly, crude membrane suspensions containing 10% rat cerebral cortex were prepared in aqueous 50 mM Tris-HCl buffer (pH 7.4, 4° C.), using a Polytron homogeniser.\nAssays contained 100 μl of cortex homogenate, [^3H]-ifenprodil (4 nM) and various concentrations of test drug. Nonspecific binding was determined using spermine (10 μM).\nThe sigma receptor ligand 3PPP(+)-3-(3-hydroxyphenyl)-N-propyl-piperidine (100 μM) was included in all tubes to block binding to sigma receptors. Incubation was for two hours at 4° C., ie., conditions favourable to NMDA/polyamine receptor binding. Assays were terminated with ice-cold buffer by rapid vacuum filtration using a Brandel Cell Harvester, through GF/B filter paper, presoaked in 0.025% polyethylimine. Filterpapers were collected, combined with scintillant and bound radioactivity determined using a Packard Scintillation counter.\nCompetition curves obtained for drugs active in each assay were analysed using the computer binding analysis program Radlig, using Kd=5.72 nM and 2.78 nM for polyamine/NMDA assays respectively."}, "[2]": {"test_system": "voltage-sensitive sodium channels (rat brain homogenates)", "settings": "approximate IC50 from dose response curves, 30 minutes at 37° C., scorpion toxin present, tested form: free base or hydrochloride (not specifie)", "text": "Compounds that modulate voltage-sensitive sodium channels may be useful in a number of therapeutic indications including disorders related to neurological damage of the peripheral and/or the central nervous system. Affinity for voltage-sensitive sodium channels may be determined by measuring the displacement of labelled ligands from their binding sites on the sodium channel, for example the procedure of Catterall et al. (1981) uses [^3H]-batrachotoxinin A 20-α-benzoate. Compounds of the present invention show an affinity for voltage-sensitive sodium channels in this type of assay.\nSodium Channel Binding Assay\nThe general procedure of Catterall et al. (1981) was used with minor modifications. […] Bound radioactivity is assessed using a scintillation counter. From dose response curves approximate IC50 values for the test compounds were determined."}, "[3]": {"test_system": "cultured cerebellar granule cells", "experiment": "Veratridine induced toxicity in neuronal cultures (MTT assay)", "settings": "veratridine 100 μM, 60 minute exposure; 30 minutes pre-incubation with drug; viability at 18 hours by MTT; tested form: free base or hydrochloride (not specifie)"}}}
{"smiles": "Cc1ccccc1C(O)Cc1cc(N2CCCC2)nc(N2CCCC2)n1", "note": "(stereo not drawn)", "values": [{"measurement": "IC50", "setting": "[1]", "value": 4050, "unit": "nM"}, {"measurement": "Ki", "setting": "[1]", "value": 1320, "unit": "nM"}]}
{"smiles": "OC(Cc1cc(N2CCCC2)nc(N2CCCC2)n1)c1ccc(Cl)cc1", "note": "(stereo not drawn)", "values": [{"measurement": "IC50", "setting": "[1]", "value": 400, "unit": "nM"}, {"measurement": "Ki", "setting": "[1]", "value": 156, "unit": "nM"}, {"measurement": "IC50", "setting": "[2]", "value": 770, "unit": "nM"}, {"measurement": "EC50", "setting": "[3]", "value": 4000, "unit": "nM"}]}
